The text below walks through data of patent publication US20150018486A1, “Nanotherapeutic Colloidal Metal Compositions and Methods” (Cytlmmune Sciences, Inc., priority 2007, published 2015).

The test system of this data set is rabbits. Put plainly: IL-2 toxicity and antibody response in rabbits. The format is in vivo. The conditions noted are these: 1 mg IL-2 per 3 kg animal, 3 rabbits; for toxicity: every third day for a two-week period. The procedure:
However, the toxic side effects of administration of IL-2 result in the death of a significant number of the patients. In contrast, if a vector composition comprising at least IL-2 and a colloidal metal is administered, little or no toxicity is observed and a strong immune response occurs in the recipient. The doses previously used for IL-2 therapy have been on the order of 21×10^6 units of IL-2 per 70 kg person per day (7×10^6 units of IL-2 per 70 kg person TID). One unit equals approximately 50 picograms, 2 units equals approximately 0.1 nanograms, so 20×10^6 units equals 1 milligram. In effect, the studies of the effects of the administration of agents described herein have included doses of more than 20 times higher than that previously given to humans. […] A “positive antibody response” as used herein is defined as a three to fourfold increase in specific antibody reactivity, as determined by direct ELISA, comparing the post-immunization bleed with the preimmunization bleed. A direct ELISA is done by binding IL-2 onto a microtiter plate, and determining the quantity of IgG bound to the IL-2 on the plate, by goat anti-rabbit IgG conjugated to alkaline phosphatase. Therefore, it is thought that the biological effects of the IL-2 remain.

For the substance “IL-2 colloidal gold vector: same dose of IL-2 used in vector compositions comprising colloidal gold”, the toxicity result is “no toxicity was observed”. Moreover, under “every third day for two weeks”, the “antibody response (direct ELISA)” value is “significant antibody response resulted in all three animals”. IL-2: Interleukin-2: the toxicity entry is “two of the animals died”.
